Earlier results as cited in patent US20140301952A1, “MEASUREMENT OF BODY FLUID VOLUMES” (PHARMACOPHOTONICS, INC. D/B/A FAST DIAGNOSTICS, priority 2009, published 2014).
Where two headings read alike, the source gives them in different places.

Substance: albumin: common indicator molecule for the dilution technique, used labeled with I125/I131 or ICG
- rate of leak into the interstitial space (patients with septic shock): 15 % per hour
- rate of leak into the interstitial space (physiologic conditions): about 5 % per hour
